In US8742072B2, “Bone growth particles and osteoinductive composition thereof” (Zimmer Orthobiologics, Inc., priority 2006, dated 2014):

What was measured:
acid-soluble BMPs = details: surface chemistry: alkaline (TCP, HA), moderately acidic (dical); cited from earlier work
[1] = Source text: Biologically compatible, sparingly soluble calcium phosphates are suitable supplements to locally increase the supply of soluble calcium [Ca^2+] and phosphate [PO4^3−] ions.

Substance: calcium hydroxyapatite [Ca5(PO4)3(OH) (HA)]
- binding of acid-soluble BMPs / acidic proteins (acid-soluble BMPs): strongly bind
- Equilibrium [Ca^2+] [1]: 2.2 µM
- Equilibrium [PO4^3−] [1]: 1.3 µM
- Insoluble fraction [200 mg/cc] [1]: 99.9999 wt. %
